## AlphaSeq binding of Ab-14 light chain variants to a spike HR2 peptide

Target peptide (SARS-CoV-2 spike, HR2 region): PDVDLGDISGINAS

The variants keep the heavy chain, the linker and the frameworks of Ab-14 (scFv order VH, a 15-residue (Gly4Ser)3 linker, VL).
VH: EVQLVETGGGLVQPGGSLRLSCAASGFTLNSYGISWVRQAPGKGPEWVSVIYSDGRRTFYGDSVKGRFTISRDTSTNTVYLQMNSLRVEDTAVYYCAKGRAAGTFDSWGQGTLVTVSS
VL: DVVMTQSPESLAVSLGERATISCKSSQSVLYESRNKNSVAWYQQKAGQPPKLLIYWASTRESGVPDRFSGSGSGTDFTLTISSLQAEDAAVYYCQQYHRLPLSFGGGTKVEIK

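These sequences belong to a second round, designed from the earlier measurements on random variants of the parent. Several design methods are mixed in this list. In AlphaSeq, yeast of one mating type display the scFv and yeast of the other type display the target. Pairs that bind mate more often; barcode pairs of the diploids are counted by sequencing. Scores were corrected for input abundance and mapped to Kd with protein pairs of known affinity run in the same pool. The assay was run in six technical replicates.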

The parent's light chain CDRs are KSSQSVLYESRNKNSVA, WASTRES, QQYHRLPLS; each variant's own CDRs replace them letter for letter. Variants here have at most six changes. The Kd shown is the geometric mean over detected replicates; a lower Kd is a better binder. An entry "nd" has no value in the source: the pair was not observed among the diploids in any replicate. This suggests poor binding but is not conclusive. Three control strains display no target. For all light chain designs, 4% of the pairings with them gave a signal, with a median of 430 nM and one signal in twenty below 38 nM, so weak values seen in few replicates may be background. The control count says in how many pairings with the empty strains this scFv gave a signal. The authors' rule: three or more of the six replicates give a measured affinity, fewer mean a poor binder. A sequence measured in both rounds can read differently, since the two assays cover different ranges.

- KVSISYLLESRNKNSVA, EADTRES, QQYHRLPLS: 1.0 nM (6 of 6 replicates; controls 0 of 18)
- HVSPSVLYESRNKNSVA, NGSTREV, QQYHRLPLS: 470 pM (6 of 6 replicates; controls 1 of 18)
- KSSQEVLYESRNKNSVA, QASTRES, QQYGRLPLG: 190 nM (5 of 6 replicates; controls 0 of 18)
- KSSQSVLYESRNKNSVA, DASMRES, QQYHRLPLS: 1.0 nM (6 of 6 replicates; controls 0 of 18)
- KVQQSVLYESRNKNSVA, GASTRES, QQYHRLPLS: 16 pM (6 of 6 replicates; controls 0 of 18)
- SSSQSVLYESRNKNSVA, YASTRNS, QQYHRLPLS: 140 nM (4 of 6 replicates; controls 0 of 18)
- KSSQSVLYESDNKNSVA, WASTRES, QQPARLPLS: nd (0 of 6 replicates; controls 0 of 18)
- KLQQQSLYESRNKNSVA, EASTREQ, QQYHRLPLS: 940 pM (6 of 6 replicates; controls 0 of 18)
- KFQQSDPYESRNKNSVA, SASTRSS, QQYHRLPLS: 1.4 nM (6 of 6 replicates; controls 0 of 18)
- KLPQSVWYESRNKNSVA, SASTRES, QQYHRLPLS: 940 pM (6 of 6 replicates; controls 0 of 18)
- KLSQSMEYESRNKNSVA, HASTREH, QQYHRLPLM: 1.5 nM (6 of 6 replicates; controls 0 of 18)
- KFSQSVLYEPRTYNSVA, NASTRES, QQYHRLPLS: 1.3 nM (6 of 6 replicates; controls 1 of 18)
- KLSQSQLYESRNKNSVA, KASTRES, QQYHRLPLS: 2.7 nM (6 of 6 replicates; controls 0 of 18)
- KSHQSVLFWSRNKNSVV, DASTRES, QQYHRLPYS: nd (0 of 6 replicates; controls 1 of 18)
- KVSQSWLYESRNKNSVA, GASSRES, QQYHRLPLS: 460 pM (6 of 6 replicates; controls 1 of 18)
- GSSQSVLLESRNKNSVA, AASTRES, QQYHRLCLS: nd (0 of 6 replicates; controls 0 of 18)
- KLSWSWLYESRNKNNVA, NASTRES, QQYHRLPLS: 630 pM (6 of 6 replicates; controls 2 of 18)
- KSSTSTLYESRNCNSVA, GASTRES, QSYHRLPLS: 6.6 nM (6 of 6 replicates; controls 0 of 18)
- KLSQSVLYESRNKNSVA, NASYRLS, QQYHRLPLS: 4.3 nM (6 of 6 replicates; controls 1 of 18)
- KLSQSVEYESRNKNSVA, HASTRES, QQYHRLPLS: 1.4 nM (6 of 6 replicates; controls 0 of 18)
- KFSQSVDYEDRQKNSVA, NASTRES, QQYHRLPLS: 780 pM (6 of 6 replicates; controls 0 of 18)
- KWSWSVLFESRNKNSVA, DASTRSS, QQYHRLPLS: 1.3 nM (6 of 6 replicates; controls 1 of 18)
- KLSQSQLYESRNKNSVA, NASTRLE, QQYHRLPLS: 790 pM (6 of 6 replicates; controls 0 of 18)
- KMSQSVLYESRNPNSVA, QASTRES, QQYHRLPLS: 1.3 nM (6 of 6 replicates; controls 1 of 18)
- KSSTSVLYESRNANSVA, WASTREH, QQYHRLPLS: 44 nM (5 of 6 replicates; controls 2 of 18)
- KSSQSVLYESRNKNSVA, WASTREK, QQYHRLPLS: 77 nM (6 of 6 replicates; controls 2 of 18)
- KSSQSVLYESRNKNSVA, QASDRES, QQYHRMPLS: 83 nM (6 of 6 replicates; controls 0 of 18)
- KSSPSPEYESRNKNSVA, WATTRES, QQYHRLPLS: 8.7 nM (6 of 6 replicates; controls 0 of 18)
- KVSCSYLLESRNKNSVA, EASTRES, QQYHRLPLS: 630 pM (6 of 6 replicates; controls 2 of 18)
- KFSQSQLYESRNKNSVA, NASQRES, QQYHRLPLS: 590 pM (6 of 6 replicates; controls 0 of 18)
- KVSQSHLGESRNKNNIA, AASTRES, QQYHRLPLS: 2.2 nM (6 of 6 replicates; controls 0 of 18)
- KMSQSVIFNSRNKNSVA, WASTRES, QQYHRLPLS: 13 nM (6 of 6 replicates; controls 1 of 18)
- KLSQSVLYESRWKNSVA, GASQRES, QQYHRLPLS: 2.2 nM (6 of 6 replicates; controls 0 of 18)
- KSSQSWLYESRVKNSVA, GAQTRES, QQYHRPPVS: nd (0 of 6 replicates; controls 0 of 18)
- KSSQMVEYESRNKNSVA, AASTCES, QQYHRLPLS: 250 nM (6 of 6 replicates; controls 1 of 18)
- KVSQLWLYESRNKNSVA, NASTRES, QQYHRLPLS: 1.1 nM (6 of 6 replicates; controls 1 of 18)
- KVRQSTLYQSRNKNSVA, GASTRES, QQYHRLPLS: 53 nM (6 of 6 replicates; controls 2 of 18)
- KISQSVLDESRNKNSVA, AASTRAH, QQYHRLPLS: 1.8 nM (6 of 6 replicates; controls 2 of 18)
- KQSQSVLYDSRNKNSVA, EASTRES, QQYHRLPLS: 1.5 nM (6 of 6 replicates; controls 1 of 18)
- KLRQSTEYESRNKNSVA, WASTRLS, QQYHRLPLS: 3.6 nM (6 of 6 replicates; controls 3 of 18)
- KLPQSELYESRNKNSVA, NASQRES, QQYHRLPLS: 1.9 nM (6 of 6 replicates; controls 0 of 18)
- KLSQSVLYESRNKNSVA, GASKRES, QQYHRLPLS: 730 pM (6 of 6 replicates; controls 0 of 18)

Values reported by Li et al. 2023, doi:10.1038/s41467-023-39022-2 (FLAb copy).